Yeast mating assay 1: variants of the scFv Ab-14

Reference: Engelhart et al. 2022, doi:10.1038/s41597-022-01779-4. File: FLAb, binding data.

Antigen: PDVDLGDISGINAS, a 14-residue peptide of the SARS-CoV-2 spike HR2 region.

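The parent was found by panning a naive human phage display library on the peptide. The library (AAYL49) carries one to three amino acid substitutions per variant, with no insertions or deletions. AlphaSeq pools MATa yeast showing the antibodies with MATalpha yeast showing the peptide. After mating in shaken culture at 30 °C for 16 h, diploids were selected and their barcode pairs sequenced. Scores were corrected for input abundance and mapped to Kd with protein pairs of known affinity run in the same pool. There are three technical replicates.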

Parent scFv Ab-14: VH joined to VL by a (GGGGS)3 linker. Changes lie in the heavy chain CDRs alone.
VH: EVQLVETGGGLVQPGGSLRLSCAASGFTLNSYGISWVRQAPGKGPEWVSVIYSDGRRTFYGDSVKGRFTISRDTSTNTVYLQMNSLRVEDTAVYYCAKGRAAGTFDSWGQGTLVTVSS
VL: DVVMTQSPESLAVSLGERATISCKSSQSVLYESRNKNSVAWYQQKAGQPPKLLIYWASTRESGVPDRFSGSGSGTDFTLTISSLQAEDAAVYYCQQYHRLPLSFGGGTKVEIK

Variants are written as CDR1, CDR2 and CDR3 of the heavy chain (limits as in the source). Parent: GFTLNSYGIS, VIYSDGRRTFYGDSVK, GRAAGTFDS.
Every variant below is changed at V64 of the VH (sequential numbering).
Affinities are written as log10 Kd with Kd in nM; a lower number is a better binder.
The mean shown is taken over the replicates in which the pair was detected.
"nd" means that the variant was in the library but no mating with the target was seen in that replicate; the authors take this as a sign of poor binding, and no number exists.
Parent in this assay: reference entry 0.65, copy in this library 4.11 (one replicate of three).
Empty control strains, which show no peptide, gave a signal in 15% of pairings with library AAYL49; the median was 4.06 and 95% of these signals were weaker than 2.83. No background was subtracted. The control count says in how many pairings with the empty strains this scFv gave a signal.

* GFTLNSYGIS, VIYSDGRRTFYGDSDQ, GRAAGAFDS = nd, nd, nd (controls 1 of 9)
* GFTLNSYGIS, VIYSDGRRTFYGDSGK, GYAAGTFDS = 2.56, 2.82, nd (mean 2.69; controls 1 of 9)
* GFTLNSYGIS, VIYSDRRRTFYGDSWK, GRAAGKFDS = nd, nd, nd (controls 0 of 9)
* GFTLNSYGIS, VICSDGRRTFYGDSLK, GRAAGTFDS = nd, 4.48, nd (controls 1 of 9)
* GFTLNRYGIS, VIYSDRRRTFYGDSRK, GRAAGTFDS = nd, nd, nd (controls 0 of 9)
* GFTLNSYGIC, VIYSDGRRTFYGDSFK, GRQAGTFDS = nd, 4.36, nd (controls 1 of 9)
* GDTLNSYGLS, VIYSDGRRTFYGDSWK, GRAAGTFDS = nd, nd, nd (controls 5 of 9)
* GATLNSYGIS, VIYSDGRRTFEGDSGK, GRAAGTFDS = nd, nd, 3.63 (controls 0 of 9)
* GFTLNSYGIS, VIYSDGRRTFYGMSEK, GRAAGTFES = 4.10, 4.83, nd (mean 4.47; controls 3 of 9)
* GFTLNSYYIS, VIYTDGRRTFYGDSHK, GRAAGTFDS = nd, nd, nd (controls 1 of 9)
* GFTLNSYGIS, VIYSDGRRTFYGDSTK, GRAAGTFDS = nd, nd, 3.07 (controls 0 of 9)
* GFTLNSYGIS, VIYSDGRRTFNGDSFK, GKAAGTFDS = 2.50, 2.39, 2.99 (mean 2.63; controls 4 of 9)
* GFTLNSYGIS, VIYSDGRRTFYGDSDK, GFAAGTFCS = nd, nd, nd (controls 1 of 9)
* GSTLNSYGIS, VIYSDGRRTFYGDSYK, GRSAGTFDS = 4.65, nd, nd (controls 3 of 9)
* GFTLNSYDIS, VIYSDGRTTFYGDSAK, GRAAGTFDS = 4.42, 3.50, 4.34 (mean 4.09; controls 5 of 9)
* GFTLNSYGIS, VIYSDGRRTFYGDSFG, GRAAGTFDS = nd, nd, 3.96 (controls 4 of 9)
* NFTLNSWGIS, VIYSDGRRTFYGDSTK, GRAAGTFDS = nd, 4.16, nd (controls 1 of 9)
* GFTLNSYGIS, VIYSDGRRTFNGDSYK, GRAAGTFDS = nd, nd, nd (controls 1 of 9)
* GFTLNSYGIS, VWYSDGRRTFYGDSHT, GRAAGTFDS = nd, nd, nd (controls 0 of 9)
* GFTLNLYMIS, VIYSDGRRTFYGDSIK, GRAAGTFDS = 3.70, 3.37, nd (mean 3.54; controls 3 of 9)
* GFTLNSYNIS, VIYSDGRRTFYGDSQK, GPAAGTFDS = nd, nd, nd (controls 1 of 9)
* GFTLNSYGIS, VIYSDGRRTFYGDEAK, GRAAGTFDR = 2.33, 3.81, 2.66 (mean 2.93; controls 2 of 9)
* GFTLNSYGIS, VFYSDGRRTFYGDSRK, GRCAGTFDS = nd, nd, nd (controls 0 of 9)
* GFTLNEYGIS, VIYSDGKRTFYGDSLK, GRAAGTFDS = 1.71, 1.68, 2.21 (mean 1.87; controls 3 of 9)
* GFTLNSYGAS, VIYSDGRRTFYGDSEK, GRAAGHFDS = nd, 4.05, nd (controls 1 of 9)
* GFTLNSYGIS, VKYEDGRRTFYGDSGK, GRAAGTFDS = nd, 4.29, nd (controls 1 of 9)
* KFTLNSYGIS, VIYSDGRRTFYGDSIK, GRRAGTFDS = 3.45, 3.16, 2.59 (mean 3.07; controls 3 of 9)
* GFTLNSYGIS, VIYSDGRRTFYGDSKK, GRAAGSCDS = nd, nd, nd (controls 1 of 9)
* GFTLNSYGIS, VIYSDGRRTKYGDSKK, GRAAGTFSS = nd, nd, nd (controls 0 of 9)
* GFTLNSYLIS, VIYSDGRRTFYGDSKK, GRAAGTFDP = nd, nd, nd (controls 0 of 9)
* GFTLNSYGIS, VIYEDGRRTWYGDSDK, GRAAGTFDS = nd, 3.09, nd (controls 3 of 9)
* GFTLNSCGIS, VIYSDGRRTFYGDSIK, GRAQGTFDS = nd, 3.29, nd (controls 1 of 9)
* GFTLNSYGIS, VIYSDGRRTFYGDSAK, GRAAGTFDS = 1.25, 1.46, 1.57 (mean 1.43; controls 1 of 9)
* GFTLNSYGIS, VIVSDGRRTFYGDSRK, GRAAGTNDS = 5.61, 4.24, nd (mean 4.92; controls 1 of 9)
* GFTLNSYGIS, VIDSDGRRTFYGDHCK, GRAAGTFDS = nd, nd, nd (controls 0 of 9)
* GFTLNSYGIS, VIYSDGRRTFYGDSTK, GRAAGTLDS = nd, 4.33, nd (controls 3 of 9)
* GFTLNTYGIS, VIYSDGRRCFYGDSTK, GRAAGTFDS = nd, nd, 3.27 (controls 1 of 9)
* GFTLNSYGIS, VIYSDGRRTFRKDSGK, GRAAGTFDS = nd, nd, nd (controls 1 of 9)
* GFTLNSYGIS, VIYSDGRRTFYGDSSD, GRAATTFDS = nd, 2.94, nd (controls 1 of 9)

Excerpt, the final 3 entries:

- GFTLNTYGIS, VIYSDGRRCFYGDSTK, GRAAGTFDS = nd, nd, 3.27 (controls 1 of 9)
- GFTLNSYGIS, VIYSDGRRTFRKDSGK, GRAAGTFDS = nd, nd, nd (controls 1 of 9)
- GFTLNSYGIS, VIYSDGRRTFYGDSSD, GRAATTFDS = nd, 2.94, nd (controls 1 of 9)